Experimental data reported in US9402842B2, “Synthesis and use of dual tyrosyl-DNA phosphodiesterase I (Tdp1)—topoisomerase I (Top1) inhibitors” (Purdue Research Foundation, priority 2012, dated 2016).
Read-outs that look alike come from different tables or passages of the source. Blank lines part the entries; values can stand above or below the compound they belong to.

The chains behind the UniProt entries cited, without tags or fusion partners.
UniProt P11387, whole entry: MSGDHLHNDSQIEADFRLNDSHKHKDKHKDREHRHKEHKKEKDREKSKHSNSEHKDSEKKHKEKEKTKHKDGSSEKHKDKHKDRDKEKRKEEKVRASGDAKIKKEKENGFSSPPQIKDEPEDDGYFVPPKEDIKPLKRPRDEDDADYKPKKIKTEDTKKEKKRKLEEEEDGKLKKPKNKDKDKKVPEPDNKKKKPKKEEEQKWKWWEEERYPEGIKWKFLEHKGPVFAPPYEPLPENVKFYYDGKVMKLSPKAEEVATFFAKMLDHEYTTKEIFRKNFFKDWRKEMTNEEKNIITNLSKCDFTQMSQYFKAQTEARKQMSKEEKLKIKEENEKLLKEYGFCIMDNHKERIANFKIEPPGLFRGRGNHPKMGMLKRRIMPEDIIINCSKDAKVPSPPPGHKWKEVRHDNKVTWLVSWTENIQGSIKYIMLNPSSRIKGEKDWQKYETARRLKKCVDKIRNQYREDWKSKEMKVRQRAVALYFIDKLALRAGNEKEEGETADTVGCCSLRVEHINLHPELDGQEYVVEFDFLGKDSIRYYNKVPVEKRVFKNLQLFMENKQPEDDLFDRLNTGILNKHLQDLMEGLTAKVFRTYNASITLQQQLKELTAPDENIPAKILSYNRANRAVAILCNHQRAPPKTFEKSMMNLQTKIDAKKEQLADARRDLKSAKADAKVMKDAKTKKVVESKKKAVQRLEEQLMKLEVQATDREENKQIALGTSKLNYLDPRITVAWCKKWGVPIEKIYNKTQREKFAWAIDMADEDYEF
UniProt Q9NUW8, whole entry: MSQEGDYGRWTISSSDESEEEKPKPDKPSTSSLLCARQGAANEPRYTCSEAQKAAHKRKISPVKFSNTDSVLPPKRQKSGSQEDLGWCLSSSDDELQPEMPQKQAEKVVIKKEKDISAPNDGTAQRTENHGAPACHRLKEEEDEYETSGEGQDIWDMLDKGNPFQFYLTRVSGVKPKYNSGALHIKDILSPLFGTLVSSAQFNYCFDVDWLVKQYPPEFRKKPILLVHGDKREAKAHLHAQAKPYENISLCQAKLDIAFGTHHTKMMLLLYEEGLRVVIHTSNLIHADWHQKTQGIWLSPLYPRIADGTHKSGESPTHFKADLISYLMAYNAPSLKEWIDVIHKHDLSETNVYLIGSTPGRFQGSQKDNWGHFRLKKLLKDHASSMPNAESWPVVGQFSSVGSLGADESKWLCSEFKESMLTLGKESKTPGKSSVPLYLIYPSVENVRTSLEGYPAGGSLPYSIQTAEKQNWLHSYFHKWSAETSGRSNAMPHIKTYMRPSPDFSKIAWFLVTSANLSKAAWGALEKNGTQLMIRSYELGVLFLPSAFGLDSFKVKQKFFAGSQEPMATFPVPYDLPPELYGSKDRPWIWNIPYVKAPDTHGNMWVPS

Columns and labels:
human recombinant Top1 = human recombinant Top1 (Homo sapiens (Human), UniProt P11387); assay: Topoisomerase I-mediated DNA cleavage reactions; details: tested form: HCl; for Top1, compound-induced DNA cleavage due to Top1 inhibition: semiquantitative, relative to 1 μM camptothecin
Tdp1 [1] = target: T1, Tdp1 (Homo sapiens (Human), UniProt Q9NUW8); assay: Gel-based assay measuring the inhibition of recombinant Tdp1; type: biochemical; details: tested form: HCl
Tdp1 [2] = target: T1, Tdp1; assay: FRET assay, mechanism of inhibition of Tdp1; type: biochemical; details: tested form: HCl
Tdp1 [3] = target: T1, Tdp1; assay: Surface plasmon resonance binding to immobilized Tdp1; details: amine coupled Tdp1; tested form: HCl

Top1, compound-induced DNA cleavage due to Top1 inhibition (human recombinant Top1): 0/+
SMILES: NCCCCCCCCCCCCn1c2c(c3ccccc3c1=O)C(=O)c1ccccc1-2

suppression of Top1-mediated DNA cleavage at high drug concentration (human recombinant Top1; high concentration of 100 μM): complete suppression | Top1, compound-induced DNA cleavage due to Top1 inhibition (human recombinant Top1): 0 | IC50 (Tdp1 [1]; read-out: IC50 (μM) recombinant Tdp1, recombinant Tdp1, gel-based assay): 14 µM | IC50 (Tdp1 [1]; read-out: Tdp1 (semiquantitative IC50 scale), determined by duplicate): > 111 µM | Tdp1 inhibitory activity (in words) (Tdp1 [1]; recombinant Tdp1): inactive
SMILES: NCCCCCCCCCCn1c2c(c3ccccc3c1=O)C(=O)c1ccccc1-2

mechanism of inhibition (Tdp1 [2]): competitive inhibitor | binding to Tdp1 by surface plasmon resonance (in words) (Tdp1 [3]): direct binding
SMILES: NCCCn1c2c(c3ccccc3c1=O)C(=O)c1ccccc1-2

Top1, compound-induced DNA cleavage due to Top1 inhibition (human recombinant Top1): + (between 20 and 50%, activity)
SMILES: NCCCCCCCCCCCn1c2c(c3ccccc3c1=O)C(=O)c1ccccc1-2
